This passage reports Kd results from doi:10.1101/2025.10.08.25337413 (medRxiv, 2025).

Chains of the proteins cited; added tags and fusions are not shown. Residues count along the entry.
UniProt P05067, 672-713: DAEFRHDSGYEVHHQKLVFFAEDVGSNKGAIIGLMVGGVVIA

In this assay the target is T1, biotinylated Aβ42 (human, UniProt P05067 672-713, biotin (position not given)).
T1 construct: amyloid-beta 1-42, cut product of the amyloid precursor protein APP; numbers count on: the Aβ peptide; The ThT assay used unbiotinylated recombinant human Aβ 1–42 (rPeptide A-1170–1); also called Aβ 1–42; Aβ1–42; source: bought: rPeptide (A1117–1)
The experiment in a line: BLI; BLItz instrument; biotinylated Aβ40 or Aβ42 (10 uM) loaded 120 s on High Precision Streptavidin (SAX) biosensors; CRIP1 at 0.25, 0.5, 1, 9.1 mM (so in the source) associated 120 s, dissociation 120 s; Octet kinetics buffer; background subtracted; global fit. As to conditions: both partners purified. Background: Biolayer interferometry detects binding as a change in optical thickness at a sensor tip.

B1: recombinant human CRIP1 (natural protein, UniProt P50238 1-77, looked up)
chain: MPKCPKCNKEVYFAERVTSLGKDWHRPCLKCEKCGKTLTSGGHAEHEGKPYCNHPCYAAMFGPKGFGRGGAESHTFK
notes: CRIP1 (cysteine-rich intestinal protein family), human, recombinant; also called cysteine-rich intestinal protein; purified recombinant human CRIP1 His protein; source: recombinant; bought: Novus Biologicals (NBP2-22979), purified (source told for the ThT assay)
Regarding B1, the affinity, expressed as Kd, was 7.58 µM.
